Test results reported in PubChem BioAssay AID1347428 (National Center for Advancing Translational Sciences (NCATS), 2020).
Only a part is listed here, and it is no random draw. Inconclusive results are not listed. Calls of active or inactive are those of the source. Calls follow the shape of the dose curve; as a rule, active = well fitted inhibition curve with a large enough effect; inconclusive = small, poorly fitted or top-dose-only effect; inactive = no such curve, though single readings can be large or run the other way.

Chains of the proteins cited; added tags and fusions are not shown.
UniProt Q9GZX7, whole entry: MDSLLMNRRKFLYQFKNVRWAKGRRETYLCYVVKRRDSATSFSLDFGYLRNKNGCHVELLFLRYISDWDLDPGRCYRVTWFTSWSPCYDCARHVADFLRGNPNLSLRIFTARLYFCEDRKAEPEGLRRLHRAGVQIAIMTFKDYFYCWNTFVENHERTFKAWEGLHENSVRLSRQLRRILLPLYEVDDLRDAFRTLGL

These compounds were tested against Single-stranded DNA cytosine deaminase (Homo sapiens) (UniProt Q9GZX7) (assay: Primary qHTS assay for inhibitors of Activation Induced Cytidine Deaminase (AID): AID signal). Settings: AID deamination FRET fluorescence, UDG-coupled, 4 h; at 115 µM (top of the series).
From the text: Assay Provider (PI) Patricia Gearhart Ph.D.
National Institute on Aging
National Institute of Health (NIH), Bethesda, MD
Assay Provider (PI) Rahul Kohli Ph.D.
Perelman School of Medicine
University of Pennsylvania, Philadelphia, PA
Activation-Induced Deaminase (AID) is a cytosine deaminase which converts cytosine into uracil within stretches of ssDNA. The presence of uracil in DNA initiates a cascade of mutagenic DNA repair to introduce point mutations and DNA double strand breaks. Specific targeting of AID to the immunoglobulin heavy chain loci (Igh) promotes mutagenesis in the antibody variable region for somatic hypermutation (SHM) or switch regions leading to class switch recombination (CSR). […]
A FRET based analysis of cytosine deamination, was developed to identify potential inhibitors of AID catalytic activity. This screen has two signal output, Read 1 evaluates the AID inhibition response. The second readout (Read 2) evaluates UDG response and is uses as a counterscreen to exclude false positive inhibitors. […]
9a; Detection; fluorescence (Read 1: AID); EnVision (PerkinElmer) plate reader, 540 excitation and 590 emission filters
9b; Detection; fluorescence (Read 2: UDG); EnVision (PerkinElmer) plate reader, 560 excitation and 665 emission filters […]
9a; Fluorescence signal (column label AID) was read using the EnVision plate reader. […]
% is scaled to controls: 0 for no effect and ±100 for the full control effect.
Also: nearly all actives have a fitted effect of over 25% in size.

Row | SMILES | activity change, negative = inhibition
1 | N#[O+].[C-]#N.[C-]#N.[C-]#N.[C-]#N.[C-]#N.[Fe+2].[Na+].[Na+] | inactive: 23.6%
